Patent US11319295B2, “Substituted phenyloxetane and phenyltetrahydrofuran compounds as indoleamine 2,3-dioxygenase (IDO) inhibitors” (MERCK SHARP & DOHME CORP., priority 2017, dated 2022)

Protein sequences, listed by entry. Tags and fused reporters are not part of them.
UniProt P14902, whole entry: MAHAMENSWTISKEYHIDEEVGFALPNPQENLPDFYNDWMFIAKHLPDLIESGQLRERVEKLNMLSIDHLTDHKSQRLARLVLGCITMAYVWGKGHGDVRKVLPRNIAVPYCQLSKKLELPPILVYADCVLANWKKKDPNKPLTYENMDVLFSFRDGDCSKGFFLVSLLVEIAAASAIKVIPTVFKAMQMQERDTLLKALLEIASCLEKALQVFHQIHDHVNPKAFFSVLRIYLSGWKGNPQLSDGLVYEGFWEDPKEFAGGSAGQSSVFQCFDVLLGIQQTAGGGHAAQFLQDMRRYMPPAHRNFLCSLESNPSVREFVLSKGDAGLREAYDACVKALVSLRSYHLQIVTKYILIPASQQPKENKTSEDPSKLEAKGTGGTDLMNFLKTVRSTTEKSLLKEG

Target: IDO1 (Homo sapiens, UniProt P14902)
Assay: IDO1 Cellular Assay in Hela Cells Stimulated with IFNγ
Conditions: Hela IC50 (nM), Hela cells stimulated with IFNγ 100 ng/mL, 300 uM L-tryptophan, about 48 hours; form screened: Neutral

- IC50: 1020 nM
Compound: CCCC(=O)NC1(c2ccc(NC(=O)c3cccc(Cl)c3)cc2)CCOC1 (stereo not shown) [Example 12, N-(4-(3-Butyramidotetrahydrofuran-3-yl)phenyl)-3-chlorobenzamide]
